The text below walks through data of PubChem BioAssay AID1715 (Vanderbilt High Throughput Screening Facility, 2009).

Sequences of proteins named here, by UniProt entry; tags and fusion partners are left off.
UniProt Q9H2X9, whole entry: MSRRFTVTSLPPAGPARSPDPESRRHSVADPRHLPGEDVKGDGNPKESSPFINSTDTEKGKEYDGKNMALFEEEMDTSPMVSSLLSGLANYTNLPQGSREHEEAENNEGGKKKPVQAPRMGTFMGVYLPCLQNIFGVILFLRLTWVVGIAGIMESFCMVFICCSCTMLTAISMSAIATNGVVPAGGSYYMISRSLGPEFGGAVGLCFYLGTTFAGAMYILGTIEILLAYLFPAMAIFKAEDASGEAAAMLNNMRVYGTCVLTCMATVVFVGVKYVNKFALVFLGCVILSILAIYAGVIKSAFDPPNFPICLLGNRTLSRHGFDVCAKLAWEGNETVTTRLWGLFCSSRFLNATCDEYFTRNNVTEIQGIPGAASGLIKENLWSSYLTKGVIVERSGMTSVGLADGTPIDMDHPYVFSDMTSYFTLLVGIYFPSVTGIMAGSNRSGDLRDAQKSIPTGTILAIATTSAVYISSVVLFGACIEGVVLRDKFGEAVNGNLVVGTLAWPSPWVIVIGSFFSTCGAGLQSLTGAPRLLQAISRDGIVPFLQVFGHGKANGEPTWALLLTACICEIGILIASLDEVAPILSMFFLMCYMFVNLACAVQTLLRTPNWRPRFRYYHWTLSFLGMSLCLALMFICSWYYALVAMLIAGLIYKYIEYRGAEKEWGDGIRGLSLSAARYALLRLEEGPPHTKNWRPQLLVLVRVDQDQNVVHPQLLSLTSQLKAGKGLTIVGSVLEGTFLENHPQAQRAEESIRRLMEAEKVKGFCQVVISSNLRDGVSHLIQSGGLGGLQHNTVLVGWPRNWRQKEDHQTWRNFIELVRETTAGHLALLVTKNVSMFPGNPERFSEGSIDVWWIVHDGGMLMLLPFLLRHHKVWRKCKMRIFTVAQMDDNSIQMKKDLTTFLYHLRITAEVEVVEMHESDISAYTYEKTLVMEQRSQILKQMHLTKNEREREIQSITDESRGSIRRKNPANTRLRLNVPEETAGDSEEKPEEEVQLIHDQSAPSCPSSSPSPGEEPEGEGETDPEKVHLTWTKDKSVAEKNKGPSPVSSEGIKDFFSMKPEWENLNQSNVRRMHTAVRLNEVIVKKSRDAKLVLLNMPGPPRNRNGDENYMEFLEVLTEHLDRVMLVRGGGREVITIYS

The list shows a part of the results, in another mix than the full data. Records with an inconclusive call do not appear. Activity calls are given as the source filed them.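 The calls were made as follows: active = thallium flux slope more than 3 SD above or below the plate's solvent-only control mean, mostly below; inconclusive = the two repeat wells disagreed; inactive = no significant shift from solvent-only controls.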

For this test, the target named is Solute carrier family 12 member 5 (Homo sapiens) (UniProt Q9H2X9). Nature of the test: KCC2 modulators without ouabain present, confirmation, cell-based, HEK293 KCC2, thallium flux, FluoZin2, secondary assay 2 (AID 1715).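 Also: raw slope with 0.1% DMSO as baseline and bumetanide as block control.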 Conditions: HEK293-KCC2, thallium flux FluoZin2 fluorescence; at 10 µM; actives lie on both sides; F/F0 rise rate, 10–20 s post-thallium.
In the case of `CP(=O)(Nc1ccccc1)Oc1ccc(F)cc1` (stereo unspecified), the normalized thallium flux is inactive: 0.0306.
